The term IC50 denotes the midpoint of a concentration-inhibition curve.

The experiment has as its target T1, Very long chain fatty acid elongase 6 (Mus musculus, UniProt Q920L5).
T1 sequence (Q920L5 whole entry): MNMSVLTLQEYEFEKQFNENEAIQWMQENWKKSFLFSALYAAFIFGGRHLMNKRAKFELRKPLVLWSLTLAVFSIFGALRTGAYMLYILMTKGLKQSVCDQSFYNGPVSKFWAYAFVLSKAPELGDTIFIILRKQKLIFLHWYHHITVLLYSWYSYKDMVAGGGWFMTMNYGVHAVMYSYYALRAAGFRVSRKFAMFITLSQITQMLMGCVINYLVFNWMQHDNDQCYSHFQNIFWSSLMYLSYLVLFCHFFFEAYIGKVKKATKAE
The experiment in a line: Inhibition of ELOVL6 in mouse H2.35 cells assessed as elongation index. In kind it is cell-based. An outline of the steps: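 Subconfluent mouse hepatoma H2.35 cells were kept at 33 °C in DMEM with 200 nM dexamethasone and 4% FBS. Cells were preincubated with compound 60 min, then labelled with [1-14C]palmitic acid (0.8 μCi/mL final) for 4 h. Lipids were hydrolysed in NaOH at 70 °C, and fatty acids extracted and quantified by radio-HPLC. Elongation index = (C18:0 + C18:1) / (C16:0 + C16:1).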

Consider `O=C1Nc2ccc(Cl)cc2C(CNC(=O)c2ccc(F)cc2)(C(F)(F)F)O1` (stereo unspecified), for which the IC50 was found to be 131 nM.

The values above are taken from ChEMBL document CHEMBL1154682, “Discovery of novel benzoxazinones as potent and orally active long chain fatty acid elongase 6 inhibitors” (J Med Chem, 2009).
